# Assay results taken from PubChem BioAssay AID504326 (The Scripps Research Institute Molecular Screening Center, 2011).
# Sequences of proteins named here, by UniProt entry; tags and fusion partners are left off.
# UniProt P35372, whole entry, looked up: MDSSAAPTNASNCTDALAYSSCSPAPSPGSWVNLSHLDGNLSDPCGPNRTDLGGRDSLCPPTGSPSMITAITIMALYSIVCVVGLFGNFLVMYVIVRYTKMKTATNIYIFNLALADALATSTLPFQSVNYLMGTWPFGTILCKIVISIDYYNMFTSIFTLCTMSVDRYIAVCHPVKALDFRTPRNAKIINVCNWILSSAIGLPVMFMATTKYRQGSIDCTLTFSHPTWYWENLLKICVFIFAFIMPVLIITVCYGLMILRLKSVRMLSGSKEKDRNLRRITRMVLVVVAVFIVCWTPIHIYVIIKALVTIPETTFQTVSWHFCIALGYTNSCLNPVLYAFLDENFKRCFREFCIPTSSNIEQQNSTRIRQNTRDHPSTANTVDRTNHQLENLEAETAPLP
# UniProt P41143, whole entry, looked up: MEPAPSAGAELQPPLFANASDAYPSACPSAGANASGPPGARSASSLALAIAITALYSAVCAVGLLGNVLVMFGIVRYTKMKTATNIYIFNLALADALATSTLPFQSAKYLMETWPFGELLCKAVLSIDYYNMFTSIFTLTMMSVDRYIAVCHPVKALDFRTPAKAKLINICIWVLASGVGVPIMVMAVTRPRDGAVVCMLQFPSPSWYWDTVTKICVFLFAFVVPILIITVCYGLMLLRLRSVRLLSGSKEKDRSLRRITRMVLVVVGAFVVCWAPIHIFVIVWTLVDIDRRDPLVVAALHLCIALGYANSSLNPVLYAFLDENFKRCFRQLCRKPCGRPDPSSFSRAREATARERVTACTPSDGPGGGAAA
# The list shows a part of the results, in another mix than the full data. Some structures show a salt or complex split into parts, the way the source records it. Activity calls are given as the source filed them. No stated cut-off is given here; in the data, active means activation above about 18%; inactive means the rest.
# Molecular target: Mu-type opioid receptor (Homo sapiens) + Delta-type opioid receptor (Homo sapiens) (UniProt P35372+P41143)
# Test: agonists of OPRM1-OPRD1 heterodimerization, primary screen, cell-based, luminescence (AID 504326);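 further: 0% = vehicle-treated cells and 100% = reference agonist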
# Settings: cells, at 9.3 µM, stronger effect = higher value
row,SMILES,activation
1,CCCCN1CCC(C#N)(Nc2ccccc2)CC1,inactive: -2.23%
2,COc1ccccc1OP(C)(=O)Nc1ccccc1Br (configuration not stated),inactive: -0.4%
3,CC(C)(C)c1ccc(OP(C)(=O)O)cc1,inactive: -0.15%
4,CP(=O)(Nc1ccc(Cl)cc1)Oc1ccc(F)cc1 (configuration not stated),inactive: -1.28%
5,COc1ccc(OP(C)(=O)Nc2ccccn2)cc1 (configuration not stated),inactive: -0.53%
6,CN(C)CCOC(=O)C(O)(c1ccccc1)C1CCCC1 (configuration not stated),inactive: -2.61%
7,COc1ccccc1OP(C)(=O)Nc1ccc(Br)cc1 (configuration not stated),inactive: -2.58%
8,COc1ccccc1OP(C)(=O)Nc1ccc(C)cc1C (configuration not stated),inactive: -2.77%
9,CP(=O)(Nc1ccccn1)Oc1ccccc1 (configuration not stated),inactive: -0.8%
10,CCc1ccc(OP(C)(=O)O)cc1,inactive: -0.69%
11,Cc1c(NP(C)(=O)Oc2ccc(C(C)C)cc2)c(=O)n(-c2ccccc2)n1C (configuration not stated),inactive: -1.65%
12,O=[N+]([O-])c1cc([N+](=O)[O-])c(Nc2ccccn2)c([N+](=O)[O-])c1,inactive: 2.55%
13,COc1ccccc1OP(C)(=O)Nc1ccc(C)c(C)c1 (configuration not stated),inactive: -1.51%
14,COc1ccc(OP(C)(=O)Nc2ccccc2Br)cc1 (configuration not stated),inactive: -1.07%
15,Cc1cc(C)cc(OP(C)(=O)Nc2cccc(C(F)(F)F)c2)c1 (configuration not stated),inactive: -0.43%
16,O=C1C(O)=C([N+](=O)[O-])C(=O)C(O)=C1[N+](=O)[O-],inactive: -3.05%
17,CP(=O)(Nc1ccc(Cl)cc1Cl)Oc1ccccc1 (configuration not stated),inactive: -0.57%
18,CCCCCCCCCCCCCCCC1C[N+](C)(C)CCOP(C)(=O)O1 (configuration not stated),inactive: -2.42%
19,CP(=O)(OCCOc1ccccc1)OCCOc1ccccc1,inactive: -4.72%
20,CCOC(=O)c1ccc(NP(C)(=O)Oc2ccc(F)cc2)cc1 (configuration not stated),inactive: -0.04%
21,COc1ccc(OP(C)(=O)Nc2ccc(SC(F)(F)F)cc2)cc1 (configuration not stated),inactive: 3.43%

row,SMILES,activation
1,CP(=O)(Nc1ccccc1)Oc1ccc(F)cc1 (configuration not stated),inactive: -0.57%
2,O=[N+]([O-])c1cc([N+](=O)[O-])c(OC2CCCCC2O)c([N+](=O)[O-])c1 (configuration not stated),inactive: -0.76%
3,CCCCCOc1ccc(NP(C)(=O)Oc2ccc(Cl)cc2Cl)cc1 (configuration not stated),inactive: 2.66%
4,Cc1c([N+](=O)[O-])cc([N+](=O)[O-])c(Br)c1[N+](=O)[O-],inactive: -2.42%
5,CCN(CC)CCCOC(=O)C(O)(c1ccccc1)C1CCCCC1 (configuration not stated),inactive: -1.37%
6,CP(=O)(Nc1ccccc1F)Oc1ccccc1 (configuration not stated),inactive: 0.76%
7,CC(C)c1ccc(OP(C)(=O)Nc2ccc(SC(F)(F)F)cc2)cc1 (configuration not stated),inactive: 4.81%
8,COc1ccc2c(c1O)-c1c(O)c(OC)cc3c1[C@H](C2)[N+](C)(C)CC3.O=[N+]([O-])c1cc([N+](=O)[O-])c([O-])c([N+](=O)[O-])c1[O-],inactive: -0.7%
9,O=C(OC1CN2CCC1CC2)c1ccc([N+](=O)[O-])cc1 (configuration not stated),inactive: 3.98%
10,O=C(OCCN1CCN(CCOCc2ccccc2)CC1)C(O)(c1ccccc1)c1ccccc1,inactive: -0.95%
11,CCOP(C)(=S)SCC(=O)NC(C)(CC)C(=O)O (configuration not stated),inactive: -0.82%
12,CP(=O)(Nc1ccc(SC(F)(F)F)cc1)Oc1ccc(F)cc1 (configuration not stated),inactive: 5.35%
13,Cc1ccccc1NP(C)(=O)Nc1ccccc1C,inactive: -0.82%
14,CP(=O)(Nc1ccc2c(c1)OCCO2)Oc1ccccc1 (configuration not stated),inactive: -0.54%
15,CN(C)CCOC(=O)C(O)(c1ccccc1)C1CCCCC1 (configuration not stated),inactive: -1.02%
16,COc1ccc(NP(C)(=O)Oc2ccccc2OC)cc1 (configuration not stated),inactive: -0.54%
17,COc1ccc(OP(C)(=O)Nc2cccc(Br)c2)cc1 (configuration not stated),inactive: -3.93%
18,Cc1c(C(c2ccc3c(c2)OCO3)c2c(C)n(C)n(-c3ccccc3)c2=O)c(=O)n(-c2ccccc2)n1C.O=[N+]([O-])c1cc([N+](=O)[O-])c(O)c([N+](=O)[O-])c1,inactive: -1.35%
19,O=[N+]([O-])c1ccc(OP2(=O)COCCO2)cc1 (configuration not stated),inactive: -1.53%
20,Cc1cc(-c2cccc3ccccc23)c(C)cn1.O=[N+]([O-])c1cc([N+](=O)[O-])c(O)c([N+](=O)[O-])c1,inactive: -3.99%
21,O=[N+]([O-])c1cc([N+](=O)[O-])c(NCC2CCS(=O)(=O)C2)c([N+](=O)[O-])c1 (configuration not stated),inactive: 4.15%
